Patent US20250059164A1, “IRAK DEGRADERS AND USES THEREOF” (Kymera Therapeutics, Inc., priority 2023, published 2025)

Protein sequences, listed by entry. Tags and fused reporters are not part of them.
UniProt Q9NWZ3, whole entry: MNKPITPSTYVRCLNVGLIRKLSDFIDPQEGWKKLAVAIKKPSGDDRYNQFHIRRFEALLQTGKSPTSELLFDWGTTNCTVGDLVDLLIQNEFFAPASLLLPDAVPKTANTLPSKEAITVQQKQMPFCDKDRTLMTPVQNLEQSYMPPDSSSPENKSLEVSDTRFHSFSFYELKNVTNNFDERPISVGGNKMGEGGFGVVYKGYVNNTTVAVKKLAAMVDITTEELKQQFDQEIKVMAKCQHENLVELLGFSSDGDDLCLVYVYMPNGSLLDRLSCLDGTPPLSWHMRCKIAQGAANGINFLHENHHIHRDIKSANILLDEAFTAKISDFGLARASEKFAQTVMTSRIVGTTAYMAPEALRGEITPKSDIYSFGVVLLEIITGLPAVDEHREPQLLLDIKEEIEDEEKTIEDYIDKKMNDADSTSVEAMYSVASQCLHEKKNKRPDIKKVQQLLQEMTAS

Molecular target: IRAK4 (Homo sapiens, UniProt Q9NWZ3)
Experiment: IRAK4 MSD degradation in OCI-LY10
Conditions: read-out: IRAK4 degradation in OCI-LY10 at 24 hrs: DC50, OCI-LY10 cells, Meso Scale Discovery

Row | SMILES | DC50
1 | Cn1nc(C2CCC(=O)NC2=O)c2cccc(C3CCN(CC4CCC(n5cc6cc(NC(=O)c7cncc(C#N)c7)c(C(C)(C)O)cc6n5)CC4)CC3(F)F)c21 (centres unmarked) | < 10 nM
2 | Cn1c(=O)n([C@@H]2CCC(=O)NC2=O)c2ccc(F)c([C@@H]3CCN(C[C@H]4CC[C@H](n5cc6cc(NC(=O)c7cncc(C#N)c7)c(C(C)(C)O)cc6n5)CC4)CC3(F)F)c21 (single isomer, unassigned) | < 10 nM
